PglD DTNB – blocks C. jejuni PglD acetyltransferase activity; AID 602405; inhibition, % at 12.5 µM; purified PglD enzyme, DTNB colorimetric CoA detection; 360,000 compounds, 0.098% hits; in the data active means inhibition above about 16%, passing the limit was not always enough
Statin myotox sup – suppressors of simvastatin-induced myotoxicity in C2C12 myotubes. ATP luminescence, 48 h; scaled: DMSO 0, geranylgeraniol control 100. rescue of ATP level, % at 7.49 µM. 330,000 compounds, 0.78% hits. AID 602340;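 active means mean ATP rescue above about 67%, or every replicate alone reaching that limit, limit read from the data, passing the limit was not always enough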;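 further: myotubes were challenged with 10 µM simvastatin during compound exposure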
UUG fidelity – alters start codon recognition fidelity in yeast. S. cerevisiae UUG-firefly luciferase reporter, luminescence/redox ratio. AID 602363. activity score, % at 18.7 µM. hit rate 0.13% among 350,000;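 active = replicate mean at a twofold rise or more, about +100% in these data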;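 note: firefly luciferase made from a UUG start codon reports start codon fidelity; reporter light over untreated wells divided by growth signal over untreated wells; some hits fall short of that in this replicate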
E-selectin induc – E-selectin induction on HUVECs; HUVEC E-selectin immunofluorescence imaging; normalized: neutral wells 0, TNF-alpha wells 100; activation, % at 7.58 µM; 260,000 compounds, 0.37% hits; AID 686992;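 active means mean E-selectin-positive cell signal at least 10% of the positive control, reached in at least 60% of replicates, without over 20% cell loss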
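Read-out basis: % PE-positive cells; Test system: HUVEC primary endothelial cells; Technique: immunofluorescence imaging; Dosing: single-point compound dose.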
PGC1a acetyl inh – lowers PGC1a acetylation signal in U2OS cells | AlphaScreen anti-acetyl-lysine; with virally co-expressed GCN5 acetyltransferase | inhibition, % at 15.6 µM | 350,000 compounds, 0.17% hits;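 active means every replicate shows inhibition of at least 40%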;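 further: 0% = neutral control wells and 100% = positive control wells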
esBAF inh – SWI/SNF esBAF complex inhibition; mouse ES cells, Bmi1-luciferase knock-in reporter, 24 h; 100% = twice the neutral-well signal; 350,000 compounds, 2% hits; reporter increase, % at 12.5 µM; in the data active means activation above about 40%;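 further: 0% = median of the plate's neutral control wells and 100% = double that signal; a rise in the Bmi1 reporter signal indicates esBAF inhibition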
* = called active by the depositor; ! = a repeat was not active. Rows were chosen to be rich in hits. Some 2.8% of all compounds tested hit in one or more screens of this group.

Screening Cc1nc(C)c(-c2ccc(SCc3ccccc3F)nn2)s1 returned PglD DTNB -1.9, Statin myotox sup 4.8, UUG fidelity -5.4, PGC1a acetyl inh 4.7 and esBAF inh 69.5*.
For CC(C)C1CC(=O)NC(SCC(=O)Nc2ccc(Br)cc2)=C1C#N (stereo not drawn) the results were PglD DTNB 0.1, Statin myotox sup -26.1, UUG fidelity 3.1, PGC1a acetyl inh 12.4 and esBAF inh 98.9*.
`COc1ccccc1C1CC(=O)NC(SCC(=O)Nc2ccccc2)=C1C#N` (stereo not drawn) gave PglD DTNB -3.2, UUG fidelity -17.5, E-selectin induc 0.2, PGC1a acetyl inh 5.6 and esBAF inh -9.2.
For COc1ccc(S(=O)(=O)N(C)C[C@H]2Oc3ccc(NC(=O)Nc4c(C)noc4C)cc3C(=O)N([C@H](C)CO)C[C@@H]2C)cc1 the results were PglD DTNB -4.0, Statin myotox sup 21.4, UUG fidelity 3.1, E-selectin induc 55.0*!, PGC1a acetyl inh -7.3 and esBAF inh 5.7.
Screening COc1ccc(S(=O)(=O)N(C)C[C@H]2Oc3c(NC(=O)Nc4c(C)noc4C)cccc3C(=O)N([C@@H](C)CO)C[C@H]2C)cc1 returned PglD DTNB -1.2, Statin myotox sup 1.4, UUG fidelity -5.9, E-selectin induc 174.5*!, PGC1a acetyl inh 10.8 and esBAF inh -0.1.
COc1ccc(S(=O)(=O)N(C)C[C@H]2Oc3ccc(NS(=O)(=O)c4c(C)noc4C)cc3C(=O)N([C@@H](C)CO)C[C@H]2C)cc1 was read as PglD DTNB 2.6, Statin myotox sup -9.0, UUG fidelity 8.0, E-selectin induc 403.8*, PGC1a acetyl inh -1.7 and esBAF inh 9.6.
`COc1ccc(S(=O)(=O)N(C)C[C@@H]2Oc3c(NC(=O)Nc4c(C)noc4C)cccc3C(=O)N([C@@H](C)CO)C[C@H]2C)cc1` gave E-selectin induc 2.6.
`Oc1cccc(Oc2ncc(C(F)(F)F)cc2Cl)c1` gave E-selectin induc 131.6*.
`CC(C)CC#Cc1ccc2c(c1)O[C@H](CN(C)CC1CC1)[C@H](C)CN([C@H](C)CO)S2(=O)=O` gave PglD DTNB 7.9, Statin myotox sup -3.9, UUG fidelity -13.8, E-selectin induc -0.1, PGC1a acetyl inh -35.5 and esBAF inh -11.0.
Screening Clc1ccc(OCc2cn3cccnc3n2)c2ncccc12 returned PglD DTNB -1.9, Statin myotox sup 12.8, UUG fidelity -22.2, PGC1a acetyl inh -1.7 and esBAF inh 57.4*.
`CCCN1[C@@H]2c3ccc(-c4ccccc4F)c(=O)n3C[C@H]1[C@H](CO)[C@H]2C(=O)NCc1ccccn1` gave E-selectin induc -0.2.
Screening C/C(=C\c1ccccc1)C(=O)Nc1cc(C)on1 returned PglD DTNB 0.8, Statin myotox sup -6.9, UUG fidelity -3.9, PGC1a acetyl inh 6.1 and esBAF inh 55.6*.
For CC1(C)NC(=O)N(CCOCCSc2ccccc2)C1=O the results were Statin myotox sup -8.9, PGC1a acetyl inh 2.5 and esBAF inh 61.3*.
`CCCC#Cc1cnc2c(c1)C(=O)N([C@H](C)CO)C[C@@H](C)[C@@H](CN(C)S(=O)(=O)c1cn(C)cn1)O2` gave PglD DTNB 1.1, Statin myotox sup -18.3, UUG fidelity 16.9, E-selectin induc -0.1, PGC1a acetyl inh -4.1 and esBAF inh 3.2.
[N-]=[N+]=NCc1ccccc1C[C@]1(C(=O)NCCN2CCOCC2)COC(c2ccc(OCCCO)cc2)=N1 was read as PglD DTNB 7.9 and UUG fidelity -1.8.
Screening C[C@H]1CN([C@@H](C)CO)C(=O)c2cc(-c3ccc(C#N)cc3)cnc2O[C@@H]1CN(C)CC1CCCCC1 returned PglD DTNB -12.5, Statin myotox sup 0.0, E-selectin induc 0.3, PGC1a acetyl inh 11.8 and esBAF inh -1.8.
Screening O=C(CC1NCCNC1=O)OCc1ccccc1 (stereo not drawn) returned PglD DTNB 3.3, Statin myotox sup 96.4*, UUG fidelity -9.4, PGC1a acetyl inh 7.3 and esBAF inh 13.3.

Quoted at random: 2 records from the list.
`CCCN1[C@@H]2c3ccc(-c4ccccc4F)c(=O)n3C[C@H]1[C@H](CO)[C@H]2C(=O)NCc1ccccn1` gave E-selectin induc -0.2.
For COc1ccc(S(=O)(=O)N(C)C[C@H]2Oc3ccc(NC(=O)Nc4c(C)noc4C)cc3C(=O)N([C@H](C)CO)C[C@@H]2C)cc1 the results were PglD DTNB -4.0, Statin myotox sup 21.4, UUG fidelity 3.1, E-selectin induc 55.0*!, PGC1a acetyl inh -7.3 and esBAF inh 5.7.
